The text below walks through data of publication PMC3064516 (Nature structural & molecular biology, 2011).

Assay [1] concerns the target ΔSMB-ATX (autotaxin, ENPP2) (Homo sapiens, UniProt Q13822).
The target in assay [2] is Autotaxin (ATX, ENPP2) (Homo sapiens, UniProt Q13822). Description: biochemical.

In general, EC50 refers to the concentration giving half of the maximal effect. Read a high EC50 as a need for much substance.

As to `CCCCCCCC/C=C\CCCCCCCC(=O)OC[C@@H](O)COP(=O)(O)O` [LPA(18:1)], the 50% effective concentration (EC50) stood at 720 nM in assay [1] and 80 nM in assay [2].
